# Assay results as given in PubChem BioAssay (NCI).
# The list shows a part of the results, in another mix than the full data. Calls of active or inactive are those of the source. Rule as the data show it: active = growth inhibition above about 70%; inactive = the rest.
# Experiment: NCI Yeast Anticancer Drug Screen. Data for the rad50 strain (AID 155);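 also: 0% = growth of vehicle-only cultures of the same strain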
# Conditions: S. cerevisiae rad50 strain growth inhibition; at 50.0 µM; stronger effect = higher value
row,SMILES,growth inhibition
1,O=C1C(Cl)=C(NCCCl)C(=O)C(Cl)=C1NCCCl,inactive: -3%
2,O=C(CSc1ccccn1)c1ccccc1,inactive: 29.4%
3,NC1=NP(=O)(Oc2ccccc2)N=C(Nc2ccccc2)N1 (stereo unspecified),inactive: 13.1%
4,CCCCOP(=O)(OCCCC)N1CCCC1C(=O)O (stereo unspecified),inactive: -1.35%
5,O=C(OCc1ccc([N+](=O)[O-])cc1)N(CCCl)CCCl,inactive: 13.2%
6,CC1COP(N(C(C)C)C(C)C)O1 (stereo unspecified),inactive: 13.2%
7,NP(=O)(OCCCCO)N(CCCl)CCCl (stereo unspecified),inactive: 10.2%
8,ClCCNCc1ccc2c(c1)OCO2,inactive: -32.9%
9,FC(Cl)C(F)(F)Sc1ccc(Cl)cc1 (stereo unspecified),inactive: -21.7%
10,O=C1CCC(C(=O)OC2CN3CCC2CC3)C(=O)N1 (stereo unspecified),inactive: 21.9%
11,ClCCN1CN(CCCl)c2ccccc21,inactive: -13.8%
12,Cc1c([N+](=O)[O-])c([N+](=O)[O-])c(CCn2cnc3c(N(CCO)CCO)ncnc32)c([N+](=O)[O-])c1[N+](=O)[O-],inactive: 21.7%
13,C[n+]1cc(-c2ccccc2)cc2ccccc21,inactive: 53.5%
14,O=[N+]([O-])c1cccc(S(=O)(=O)N(CCCl)CCCl)c1,inactive: -20.4%
15,O=C(O)C(CCCNc1ccc([N+](=O)[O-])cc1[N+](=O)[O-])Nc1ccc([N+](=O)[O-])cc1[N+](=O)[O-] (stereo unspecified),inactive: 42.4%
16,[N-]=[N+]=Nc1cc(N)c([N+](=O)[O-])cc1[N+](=O)[O-],inactive: 45.3%
17,CN(C)NC(=O)NP(=O)(NC(=O)NN(C)C)NC(=O)NN(C)C,inactive: -5.85%
18,N/C=N/P(=O)(Oc1ccccc1)Oc1ccccc1,inactive: 25.6%
19,C=CCC[P+](C)(c1ccccc1)c1ccccc1,inactive: 38.6%

row,SMILES,growth inhibition
1,BrCCN(CCBr)c1cccc2ccccc12,inactive: 15.7%
2,[O-]/[N+](C/[N+]([O-])=N/O)=N\O,inactive: 32.4%
3,CCCCOP(OCCCC)OCCCC,inactive: -12.4%
4,O=P1(Nc2ncccn2)OC(CCl)=NC1c1ccc(C2N=C(CCl)OP2(=O)Nc2ncccn2)cc1 (stereo unspecified),inactive: 20%
5,O=C(OCc1ccc([N+](=O)[O-])cc1)Oc1c(Cl)cc([N+](=O)[O-])cc1[N+](=O)[O-],inactive: -7.75%
6,CN(C)P(N)(Cl)(c1ccccc1)c1ccccc1,inactive: -1.65%
7,C[Si](C)(C)CCCNCCCl,inactive: 45.5%
8,C[C@@H]1[C@@H](C)[N+]1(C)C,inactive: 5.05%
9,O=P1(N(CCCl)CCCl)OCCCN1Br (stereo unspecified),inactive: 4.2%
10,CC(C)OC(=O)N1N=C(OC(C)C)OP12=NC(c1ccccc1)=NN2C (stereo unspecified),inactive: 1.5%
11,O=CCCOP(=O)(N(CCCl)CCCl)N1CC1 (stereo unspecified),inactive: -12.5%
12,O=[N+]([O-])c1cc([N+](=O)[O-])c(OCC(O)CO)c([N+](=O)[O-])c1 (stereo unspecified),inactive: 6.65%
13,COP(=O)(OC)N(C)[Si](C)(C)C,inactive: -43.6%
14,O=[N+]([O-])c1ccc(NCCSSCCNc2ccc([N+](=O)[O-])cc2[N+](=O)[O-])c([N+](=O)[O-])c1,inactive: -21%
15,COC(=O)C(CCl)(NC(C)=O)SC(C)=O (stereo unspecified),inactive: 19.1%
16,[N-]=[N+]=NCC(O)CN=[N+]=[N-] (stereo unspecified),inactive: 0.9%
17,CCN(CC)CCNc1cc(OC)cc2nccnc12,inactive: 18.4%
18,O=C(CC[N+](=O)[O-])OCC1OC(OC(=O)CC[N+](=O)[O-])C(OC(=O)CC[N+](=O)[O-])C(O)C1O (stereo unspecified),inactive: 2.85%
19,O=[N+]([O-])N=C1NCCN1,inactive: 11.3%

# Experiment: NCI Yeast Anticancer Drug Screen. Data for the mec2-1 strain (AID 157)
# Conditions: S. cerevisiae mec2-1 strain, at 50.0 µM, stronger effect = higher value
row,SMILES,growth inhibition
1,O=C1C(Cl)=C(NCCCl)C(=O)C(Cl)=C1NCCCl,inactive: 20.9%
2,O=C(CSc1ccccn1)c1ccccc1,inactive: 0%
3,NC1=NP(=O)(Oc2ccccc2)N=C(Nc2ccccc2)N1 (stereo unspecified),inactive: 15.2%
4,CCCCOP(=O)(OCCCC)N1CCCC1C(=O)O (stereo unspecified),inactive: -7.3%
5,O=C(OCc1ccc([N+](=O)[O-])cc1)N(CCCl)CCCl,inactive: -14.2%
6,CC1COP(N(C(C)C)C(C)C)O1 (stereo unspecified),inactive: -34%
7,NP(=O)(OCCCCO)N(CCCl)CCCl (stereo unspecified),inactive: 8.9%
8,ClCCNCc1ccc2c(c1)OCO2,inactive: -19.5%
9,FC(Cl)C(F)(F)Sc1ccc(Cl)cc1 (stereo unspecified),inactive: -35.5%
10,O=C1CCC(C(=O)OC2CN3CCC2CC3)C(=O)N1 (stereo unspecified),inactive: 21.3%
11,ClCCN1CN(CCCl)c2ccccc21,inactive: -19.6%
12,Cc1c([N+](=O)[O-])c([N+](=O)[O-])c(CCn2cnc3c(N(CCO)CCO)ncnc32)c([N+](=O)[O-])c1[N+](=O)[O-],inactive: 1.1%
13,C[n+]1cc(-c2ccccc2)cc2ccccc21,inactive: -2.3%
14,O=[N+]([O-])c1cccc(S(=O)(=O)N(CCCl)CCCl)c1,inactive: -7.8%
15,O=C(O)C(CCCNc1ccc([N+](=O)[O-])cc1[N+](=O)[O-])Nc1ccc([N+](=O)[O-])cc1[N+](=O)[O-] (stereo unspecified),inactive: 13.6%
16,[N-]=[N+]=Nc1cc(N)c([N+](=O)[O-])cc1[N+](=O)[O-],inactive: 15.1%
17,CN(C)NC(=O)NP(=O)(NC(=O)NN(C)C)NC(=O)NN(C)C,inactive: 9.4%
18,N/C=N/P(=O)(Oc1ccccc1)Oc1ccccc1,inactive: 19.3%
19,C=CCC[P+](C)(c1ccccc1)c1ccccc1,inactive: 42.4%

row,SMILES,growth inhibition
1,BrCCN(CCBr)c1cccc2ccccc12,inactive: -22.7%
2,[O-]/[N+](C/[N+]([O-])=N/O)=N\O,inactive: 31.2%
3,CCCCOP(OCCCC)OCCCC,inactive: -33%
4,O=P1(Nc2ncccn2)OC(CCl)=NC1c1ccc(C2N=C(CCl)OP2(=O)Nc2ncccn2)cc1 (stereo unspecified),inactive: -7%
5,O=C(OCc1ccc([N+](=O)[O-])cc1)Oc1c(Cl)cc([N+](=O)[O-])cc1[N+](=O)[O-],inactive: -57.3%
6,CN(C)P(N)(Cl)(c1ccccc1)c1ccccc1,inactive: 1.5%
7,C[Si](C)(C)CCCNCCCl,inactive: 22.3%
8,C[C@@H]1[C@@H](C)[N+]1(C)C,inactive: 4.6%
9,O=P1(N(CCCl)CCCl)OCCCN1Br (stereo unspecified),inactive: -6.1%
10,CC(C)OC(=O)N1N=C(OC(C)C)OP12=NC(c1ccccc1)=NN2C (stereo unspecified),inactive: -0.6%
11,O=CCCOP(=O)(N(CCCl)CCCl)N1CC1 (stereo unspecified),inactive: -22.9%
12,O=[N+]([O-])c1cc([N+](=O)[O-])c(OCC(O)CO)c([N+](=O)[O-])c1 (stereo unspecified),inactive: 5.3%
13,COP(=O)(OC)N(C)[Si](C)(C)C,inactive: -42.1%
14,O=[N+]([O-])c1ccc(NCCSSCCNc2ccc([N+](=O)[O-])cc2[N+](=O)[O-])c([N+](=O)[O-])c1,inactive: 15.4%
15,COC(=O)C(CCl)(NC(C)=O)SC(C)=O (stereo unspecified),inactive: 14.4%
16,[N-]=[N+]=NCC(O)CN=[N+]=[N-] (stereo unspecified),inactive: -14.8%
17,CCN(CC)CCNc1cc(OC)cc2nccnc12,inactive: 15.2%
18,O=C(CC[N+](=O)[O-])OCC1OC(OC(=O)CC[N+](=O)[O-])C(OC(=O)CC[N+](=O)[O-])C(O)C1O (stereo unspecified),inactive: -15.5%
19,O=[N+]([O-])N=C1NCCN1,inactive: 9.1%
